{
  "source": "patent US5278324A",
  "about": "“Water soluble derivatives of taxol” (Virginia Tech Intellectual Properties, Inc., priority 1991, dated 1994)",
  "origin": "cited, not measured here",
  "test_system": "tubulin",
  "conditions": "cited from earlier work",
  "data": [
    {"smiles": "COc1cc2c(c(OC)c1OC)-c1ccc(OC)c(=O)cc1[C@@H](NC(C)=O)CC2", "note": "[colchicine]", "values": [
      {"measurement": "effect on microtubule formation", "result": "prevent microtubule formation"}
    ]}
  ]
}
